One molecule from patent US10881664B2, “Methods for treating EGFR mutant cancers” (priority 2015, dated 2021) can be followed below.

Sequences of proteins named here, by UniProt entry; tags and fusion partners are left off. A line that says so, or that is headed by a name, gives the form on record, which may keep a tag or linker. Residues count along the entry.
UniProt P00533, 25-1210 T790M/L858R: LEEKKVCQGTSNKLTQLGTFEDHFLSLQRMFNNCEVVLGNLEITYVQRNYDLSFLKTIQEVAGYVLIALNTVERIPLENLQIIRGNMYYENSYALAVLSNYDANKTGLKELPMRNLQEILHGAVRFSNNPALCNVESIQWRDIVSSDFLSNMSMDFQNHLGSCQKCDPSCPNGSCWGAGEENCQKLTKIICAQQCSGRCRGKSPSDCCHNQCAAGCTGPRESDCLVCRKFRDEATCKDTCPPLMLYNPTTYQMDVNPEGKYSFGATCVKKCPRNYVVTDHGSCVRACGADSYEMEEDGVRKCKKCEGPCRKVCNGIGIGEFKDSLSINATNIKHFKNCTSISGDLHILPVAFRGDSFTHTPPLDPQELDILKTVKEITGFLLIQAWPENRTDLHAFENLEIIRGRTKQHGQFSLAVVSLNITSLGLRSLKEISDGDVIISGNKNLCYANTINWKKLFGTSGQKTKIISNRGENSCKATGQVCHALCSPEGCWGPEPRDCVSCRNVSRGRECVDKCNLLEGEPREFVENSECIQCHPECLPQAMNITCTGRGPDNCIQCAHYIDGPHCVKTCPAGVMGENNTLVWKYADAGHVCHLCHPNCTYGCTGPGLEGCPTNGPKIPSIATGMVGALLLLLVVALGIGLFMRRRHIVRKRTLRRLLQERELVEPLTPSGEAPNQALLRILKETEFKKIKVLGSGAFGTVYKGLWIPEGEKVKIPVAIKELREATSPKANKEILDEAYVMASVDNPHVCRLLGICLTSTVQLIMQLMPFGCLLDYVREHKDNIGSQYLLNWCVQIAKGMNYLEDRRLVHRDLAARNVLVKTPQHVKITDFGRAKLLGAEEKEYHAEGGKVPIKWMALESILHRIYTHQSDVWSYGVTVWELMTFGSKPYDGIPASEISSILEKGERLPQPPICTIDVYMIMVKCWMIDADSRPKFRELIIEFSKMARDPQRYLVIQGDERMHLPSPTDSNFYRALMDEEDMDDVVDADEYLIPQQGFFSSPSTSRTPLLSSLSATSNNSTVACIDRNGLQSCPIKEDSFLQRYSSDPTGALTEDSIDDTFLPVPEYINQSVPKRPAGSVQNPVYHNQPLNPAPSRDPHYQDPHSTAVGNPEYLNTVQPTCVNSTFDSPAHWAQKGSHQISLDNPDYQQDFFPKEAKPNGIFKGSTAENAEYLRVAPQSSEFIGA
UniProt P00533, with tags, fused parts or gaps INS770NPG: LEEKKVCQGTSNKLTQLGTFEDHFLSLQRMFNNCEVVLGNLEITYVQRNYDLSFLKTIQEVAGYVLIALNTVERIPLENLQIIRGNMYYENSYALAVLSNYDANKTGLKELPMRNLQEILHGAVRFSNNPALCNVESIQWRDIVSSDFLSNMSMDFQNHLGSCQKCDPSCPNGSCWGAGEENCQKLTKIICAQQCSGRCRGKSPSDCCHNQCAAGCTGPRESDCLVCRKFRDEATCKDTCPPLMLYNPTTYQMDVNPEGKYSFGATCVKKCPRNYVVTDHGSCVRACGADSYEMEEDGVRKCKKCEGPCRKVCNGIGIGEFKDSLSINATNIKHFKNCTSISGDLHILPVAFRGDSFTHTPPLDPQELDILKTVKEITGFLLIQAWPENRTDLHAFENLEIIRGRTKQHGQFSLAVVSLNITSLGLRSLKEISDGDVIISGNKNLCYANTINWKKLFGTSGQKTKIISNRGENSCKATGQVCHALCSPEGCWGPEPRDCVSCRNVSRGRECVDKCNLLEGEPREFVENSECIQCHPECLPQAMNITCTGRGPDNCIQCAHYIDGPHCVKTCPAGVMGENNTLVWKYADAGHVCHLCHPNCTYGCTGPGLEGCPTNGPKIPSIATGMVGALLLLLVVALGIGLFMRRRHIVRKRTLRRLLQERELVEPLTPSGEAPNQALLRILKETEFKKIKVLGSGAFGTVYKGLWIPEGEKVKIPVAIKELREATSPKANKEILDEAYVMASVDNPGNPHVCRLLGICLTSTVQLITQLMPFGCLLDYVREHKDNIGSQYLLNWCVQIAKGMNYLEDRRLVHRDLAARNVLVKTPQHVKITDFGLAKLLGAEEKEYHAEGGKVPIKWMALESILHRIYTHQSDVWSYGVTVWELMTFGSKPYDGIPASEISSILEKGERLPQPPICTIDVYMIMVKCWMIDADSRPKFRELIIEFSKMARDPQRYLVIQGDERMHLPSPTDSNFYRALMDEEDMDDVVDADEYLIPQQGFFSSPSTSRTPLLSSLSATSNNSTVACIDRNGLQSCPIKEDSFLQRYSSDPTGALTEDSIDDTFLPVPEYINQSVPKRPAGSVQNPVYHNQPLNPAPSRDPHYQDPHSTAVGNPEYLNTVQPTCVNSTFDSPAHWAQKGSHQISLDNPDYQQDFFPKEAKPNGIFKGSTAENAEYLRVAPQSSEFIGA

One assay deals with EGFR (L858R/T790M) (Homo sapiens, UniProt P00533, L858R/T790M). The assay is described as follows: EGFR biochemical assay. As to conditions: with 90-minute pre-incubation.
Assay [1] concerns the target T1, EGFR Ex20_D770_N771insNPG (Homo sapiens, UniProt P00533, INS770NPG).
T1 construct: host or cells: NIH-3T3
Nature of the assay: EGFR target modulation assay (phospho-EGFR) in NIH-3T3 Ex20_D770_N771insNPG cells. The class given is cell-based. The conditions noted are these: NIH-3T3 target modulation, 3 hours. On the procedure: NIH-3T3 Ex20_D770_N771insNPG cells (obtained from DFCI) were maintained in 10% FBS/DMEM P/S media supplemented with 2 μg/mL puromycin. Engineered BaF3 cells were maintained in 10% FBS/RMPI P/S media supplemented with 2 μg/mL puromycin. All cells were maintained in a humidified incubator at 37° C. with 5% CO2.
To assess compound efficacy on EGFR target modulation, phospho-EGFR was measured in NIH-3T3 Ex20_D770_N771insNPG cells treated with compound. These cells were plated overnight in 5% FBS/DMEM at 1000 cells/well (25 μL per well) in a 384-well tissue culture plate. Compounds from a 12-point dilution curve (20 μM highest final concentration, serial diluted by 3-fold in DMSO) were transferred to the cells using a 50 nL Pin Tool device and incubated in a humidified incubator at 37° C. with 5% CO2 for 3 hours. Media was drained to 20 μL followed by the addition of 20 μL of 2×Lysis buffer with phosphatase and protease inhibitors. […] Active EGFR was detected with rabbit anti-phospho-EGFR (Y1173) followed by goat anti-rabbit IgG conjugated to HRP. Plates were developed with SuperSignal ELISA Pico chemiluminescent detection reagent and luminescence read on EnVision plate reader.
Raw data were uploaded to the LDDB server, and the IC50 values for the compound in each cell line were calculated using non-linear curve fitting analysis.

The structures appear in SMILES notation.

For the molecule `Cc1cc(C(=O)Nc2nc3cccc(Cl)c3n2[C@@H]2CCCCN(C(=O)/C=C/CN(C)C)C2)ccn1` [Compound A, (R,E)-N-(7-chloro-1-(1-(4-(dimethylamino)but-2-enoyl)azepan-3-yl)-1Hbenzo[d]imidazol-2-yl)-2-methylisonicotinamide], the IC50 – broadly, the concentration at which inhibition is half-maximal – against EGFR (L858R/T790M) is less than 1 nM; in assay [1], 14 nM.
